Here are results for one molecule from patent US20240102094A1 (Amgen, published 2024).

Chains of the proteins cited; added tags and fusions are not shown. A line that says so, or that is headed by a name, gives the form on record, which may keep a tag or linker.
UniProt Q9NP99, other isoform, or with tags, fused parts or gaps limits assumed: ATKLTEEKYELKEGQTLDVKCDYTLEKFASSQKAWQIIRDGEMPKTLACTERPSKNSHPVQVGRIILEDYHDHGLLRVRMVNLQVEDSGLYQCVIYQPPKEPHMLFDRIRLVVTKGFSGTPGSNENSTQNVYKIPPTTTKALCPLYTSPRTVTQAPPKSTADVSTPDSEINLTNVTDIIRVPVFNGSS

The assay concerns the target T1, recombinant hTREM1:GSS:Flag:6xHis (human, UniProt Q9NP99 21-205, minimally biotinylated (0.3-0.4 biotin/mol) when immobilised on streptavidin sensors).
T1 construct: also called hTREM1-His; not shown: Flag tag
Briefly: Octet (biolayer interferometry), binding signal of the His-tagged TREM protein to the antibody. The protocol: The purified hT2AB was diluted to 5 pg/ml in assay buffer (10 mM Tris, 0.13% Triton X-100, 150 mM NaCl, 1 mM CaCl2), 0.1 mg/ml BSA, pH 7.6) and captured on anti-hFc kinetic sensors (18-5090, ForteBio). Recombinant hTREM1:GSS: Flag:6×His and recombinant hTREM2:GSS:Flag:6×His were minimally biotinylated (0.3-0.4 biotin/mol) and immobilized at 70-80 nM onto high precision Streptavidin fiber optic biosensors (SAX, #18-5119) over 2000 seconds to a final loading level of ˜2 nm. Each loaded TREM2 protein was then incubated with a dilution series of hT2AB Fab protein (30, 10, 3.3 nM) for 300 seconds and then 500 seconds in buffer alone (dissociation). […] An anti-hTREM1 antibody and an isotype-matched hIgG2 control antibody were used as controls. To test the binding capacity to the hTREM2R47H mutation, bone marrow-derived macrophages (BMMs) from TREM2^CV, TREM2^R47H and Trem2^{-/-} mice were harvested on day 5 and incubated in FACS buffer (10% FCS in PBS) with hT2AB or control hIgG1 for 30 min, followed by staining with anti-hIgG Fc-PE (9040-09, SouthernBiotech). Dead cells were excluded by DAPI staining.

B1: hT2AB (fully human anti-human TREM2 agonistic monoclonal antibody, effectorless hIgG1) (antibody, V domains shown)
VH: EVQLVQSGAEVKKPGESLKISCKGSGYSFTSYWIGWVRQMPGKGLEWMGIIYPGDADARYSPSFQGQVTISADKSISTAYLQWSSLKASDTAMYFCARRRQGIFGDALDFWGQGTLVTVSS
VL: EIVMTQSPATLSVSPGERATLSCRASQSVSSNLAWFQQKPGQAPRLLIYGASTRATGIPARFSGSGSGTEFTLTISSLQPEDFAVYYCLQDNNFPPTFGQGTKVDIKR
notes: also called hT2AB IgG1; anti-human TREM2 mAb hT2AB
For B1, the binding result was “no binding”.
